Consider 1 compound from patent US11559497B2, “Transdermal drug delivery system for ketamine” (Guangzhou Dazhou Biomedicine Ltd., priority 2020, dated 2023).

The nature of data set [1]: Phase 1 clinical study: plasma pharmacokinetics after ketamine transdermal patch.
Data set [2] in a line: Prediction of delivered dose and human PK from in vitro permeability and PK linearity. The following applies: predicted.

Each structure is given as a SMILES string.

`CNC1(c2ccccc2Cl)CCCCC1=O` (racemic) [Ketamine, ketamine]: the results for the “normalized AUC ratio Stage 3/Stage 1” value in data set [1] (Mean) and in data set [1] (Median) were 1.16 and 1.23, respectively. In addition, the “Plasma AUC normalized by patch area and duration, AUC/(cm2 · d)” value in data set [1] (Stage 1, Mean) is 3.62 (ng/mL · h)/(cm2 · d); in data set [1] (Stage 1, Median), 3.73 (ng/mL · h)/(cm2 · d); in data set [1] (Stage 3, Mean), 4.17 (ng/mL · h)/(cm2 · d); in data set [1] (Stage 3, Median), 3.78 (ng/mL · h)/(cm2 · d). Also, in data set [2], the “Cmax resulting from about 100 mg dose by ketamine transdermal delivery device” value was “around 30 ng/mL”.
